Experimental data as given in ChEMBL document CHEMBL4616721, “Nitrogen-Walk Approach to Explore Bioisosteric Replacements in a Series of Potent A2B Adenosine Receptor Antagonists” (J Med Chem, 2020).

Sequences of proteins named here, by UniProt entry; tags and fusion partners are left off.
UniProt P30542, whole entry: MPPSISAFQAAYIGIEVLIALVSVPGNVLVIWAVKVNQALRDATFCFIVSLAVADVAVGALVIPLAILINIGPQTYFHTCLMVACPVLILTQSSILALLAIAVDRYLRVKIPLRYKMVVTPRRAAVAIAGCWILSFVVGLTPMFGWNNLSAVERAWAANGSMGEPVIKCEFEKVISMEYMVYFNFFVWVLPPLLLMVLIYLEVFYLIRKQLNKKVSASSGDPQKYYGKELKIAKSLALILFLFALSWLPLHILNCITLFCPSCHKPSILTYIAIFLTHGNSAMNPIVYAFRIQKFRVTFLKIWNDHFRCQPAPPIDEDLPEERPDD
UniProt P0DMS8, whole entry: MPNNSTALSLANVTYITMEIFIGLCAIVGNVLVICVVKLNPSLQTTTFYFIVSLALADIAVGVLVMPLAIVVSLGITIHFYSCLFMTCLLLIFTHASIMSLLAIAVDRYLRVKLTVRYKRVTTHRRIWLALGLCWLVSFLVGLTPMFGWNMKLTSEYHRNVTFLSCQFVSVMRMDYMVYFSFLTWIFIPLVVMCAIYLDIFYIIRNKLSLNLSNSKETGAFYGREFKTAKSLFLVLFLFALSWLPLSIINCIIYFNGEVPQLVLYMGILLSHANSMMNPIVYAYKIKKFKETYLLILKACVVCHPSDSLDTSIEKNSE

Experiments:
Adenosine receptor A1 = Adenosine receptor A1 (Homo sapiens, UniProt P30542); test: Displacement [3H]DPCPX from human adenosine A1 receptor expressed in CHO cell membranes at 1 uM incubated for 60 mins by scintillation counting method relative to control
Adenosine receptor A3 = Adenosine receptor A3 (Homo sapiens, UniProt P0DMS8); test: Displacement [3H]NECA from adenosine A3 receptor in human HeLa cell membranes at 1 uM incubated for 180 mins by scintillation counting method relative to control
Adenosine receptor A2a = Adenosine receptor A2a (Homo sapiens, UniProt P29274); test: Displacement [3H]ZM241385 from adenosine A2A receptor in human HeLa cell membranes at 1 uM incubated for 30 mins by scintillation counting method relative to control

| inhibition (Adenosine receptor A1) | inhibition (Adenosine receptor A3) | inhibition (Adenosine receptor A2a) | SMILES |
| --- | --- | --- | --- |
| 3% | 6% | 4% | CCOC(=O)C1=C(C)Nc2nc3ccccc3n2[C@H]1c1cocn1 |
| 1% | 18% | 20% | CCOC(=O)C1=C(C)Nc2nc3ccccc3n2[C@@H]1c1cocn1 |
| 5% | 7% | 11% | CCOC(=O)C1=C(C)Nc2nc3ccccc3n2C1c1cocn1 (racemic) |
